From ChEMBL document CHEMBL3817845, “Development of CNS multi-receptor ligands: Modification of known D2 pharmacophores” (Bioorg Med Chem, 2016) come the findings set out here.

Amino acid sequences for entries named in this document (tags omitted).
UniProt P41595, whole entry: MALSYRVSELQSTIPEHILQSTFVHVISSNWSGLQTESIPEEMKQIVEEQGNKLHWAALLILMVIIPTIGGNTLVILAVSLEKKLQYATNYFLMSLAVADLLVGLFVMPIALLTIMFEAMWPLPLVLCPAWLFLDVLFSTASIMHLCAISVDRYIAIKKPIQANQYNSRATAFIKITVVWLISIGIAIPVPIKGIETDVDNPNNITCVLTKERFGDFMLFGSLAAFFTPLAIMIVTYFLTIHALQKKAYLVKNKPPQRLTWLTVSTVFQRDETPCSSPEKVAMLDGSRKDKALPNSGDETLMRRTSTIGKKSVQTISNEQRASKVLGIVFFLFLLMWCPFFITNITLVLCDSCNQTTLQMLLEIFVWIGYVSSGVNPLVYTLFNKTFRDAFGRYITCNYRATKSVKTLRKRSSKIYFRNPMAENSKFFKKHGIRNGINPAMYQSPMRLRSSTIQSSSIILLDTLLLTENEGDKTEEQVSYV
UniProt P34969, whole entry: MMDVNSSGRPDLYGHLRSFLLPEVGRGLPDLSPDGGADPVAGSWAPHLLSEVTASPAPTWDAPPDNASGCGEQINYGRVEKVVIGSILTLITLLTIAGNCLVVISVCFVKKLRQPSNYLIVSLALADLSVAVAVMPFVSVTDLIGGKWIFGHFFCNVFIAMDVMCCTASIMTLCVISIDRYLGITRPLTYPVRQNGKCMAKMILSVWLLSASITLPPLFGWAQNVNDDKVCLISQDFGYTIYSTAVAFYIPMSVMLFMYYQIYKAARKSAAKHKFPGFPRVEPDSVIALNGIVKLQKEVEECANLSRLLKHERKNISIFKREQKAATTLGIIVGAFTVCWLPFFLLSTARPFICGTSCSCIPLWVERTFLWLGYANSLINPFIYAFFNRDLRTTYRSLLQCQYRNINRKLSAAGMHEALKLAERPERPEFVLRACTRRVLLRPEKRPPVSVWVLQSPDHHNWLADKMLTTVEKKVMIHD
UniProt P21917, whole entry: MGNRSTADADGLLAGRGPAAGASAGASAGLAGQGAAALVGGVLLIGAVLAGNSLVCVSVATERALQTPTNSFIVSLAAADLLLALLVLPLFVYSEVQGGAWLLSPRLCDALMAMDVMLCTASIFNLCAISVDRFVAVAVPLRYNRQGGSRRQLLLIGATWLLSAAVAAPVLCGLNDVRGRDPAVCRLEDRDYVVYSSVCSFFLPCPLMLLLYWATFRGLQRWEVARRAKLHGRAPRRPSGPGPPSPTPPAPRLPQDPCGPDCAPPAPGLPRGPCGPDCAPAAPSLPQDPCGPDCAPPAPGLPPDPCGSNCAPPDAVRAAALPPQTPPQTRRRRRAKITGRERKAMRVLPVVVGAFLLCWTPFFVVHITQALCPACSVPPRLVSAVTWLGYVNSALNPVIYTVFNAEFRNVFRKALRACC
UniProt P35462, whole entry: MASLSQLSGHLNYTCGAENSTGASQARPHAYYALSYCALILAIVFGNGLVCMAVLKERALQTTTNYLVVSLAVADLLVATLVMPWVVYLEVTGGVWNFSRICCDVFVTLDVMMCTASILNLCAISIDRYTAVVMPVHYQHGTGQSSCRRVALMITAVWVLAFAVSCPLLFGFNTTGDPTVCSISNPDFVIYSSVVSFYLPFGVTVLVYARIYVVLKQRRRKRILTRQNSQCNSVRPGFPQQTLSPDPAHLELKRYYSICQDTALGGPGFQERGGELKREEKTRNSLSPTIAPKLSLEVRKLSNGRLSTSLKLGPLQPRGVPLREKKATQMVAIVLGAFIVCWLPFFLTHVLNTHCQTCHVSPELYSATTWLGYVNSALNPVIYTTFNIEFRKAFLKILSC
UniProt P14416, whole entry: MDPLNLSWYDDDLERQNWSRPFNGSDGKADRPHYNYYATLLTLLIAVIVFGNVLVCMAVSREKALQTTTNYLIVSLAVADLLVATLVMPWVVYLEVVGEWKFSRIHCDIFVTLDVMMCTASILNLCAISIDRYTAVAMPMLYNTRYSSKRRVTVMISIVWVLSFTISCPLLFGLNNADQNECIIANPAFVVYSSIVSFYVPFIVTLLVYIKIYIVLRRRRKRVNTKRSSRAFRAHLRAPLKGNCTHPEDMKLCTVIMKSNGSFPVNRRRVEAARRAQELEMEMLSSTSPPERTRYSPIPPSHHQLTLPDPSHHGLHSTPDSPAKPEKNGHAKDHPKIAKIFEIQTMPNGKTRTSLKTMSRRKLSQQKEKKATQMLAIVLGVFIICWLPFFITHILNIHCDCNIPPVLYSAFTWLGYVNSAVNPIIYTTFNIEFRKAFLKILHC

Structures are written as SMILES.

The target of test [1] is 5-hydroxytryptamine receptor 2B (Homo sapiens, UniProt P41595). The experiment in a line: Displacement of [3H]LSD from human recombinant 5HT2B receptor incubated for […] by microbeta scintillation counting method. For orientation: Loss of bound radioactivity is the signal in a displacement assay; it reports binding, not function.
In test [2] the target is 5-hydroxytryptamine receptor 7 (Homo sapiens, UniProt P34969). The experiment in a line: Displacement of [3H]LSD from human recombinant 5HT7 receptor incubated for […] by microbeta scintillation counting method.
For another test, the target named is D(4) dopamine receptor (Homo sapiens, UniProt P21917). The experiment in a line: Displacement of [3H]N-methylspiperone from human recombinant dopamine D4 receptor incubated for […] by microbeta scintillation counting method.
A further test deals with D(3) dopamine receptor (Homo sapiens, UniProt P35462). The experiment in a line: Displacement of [3H]N-methylspiperone from human recombinant dopamine D3 receptor incubated for […] by microbeta scintillation counting method.
A further test addresses D(2) dopamine receptor (Homo sapiens, UniProt P14416). The experiment in a line: Displacement of [3H]N-methylspiperone from human recombinant dopamine D2 receptor incubated for […] by microbeta scintillation counting method.

For the compound `O=C(CCCCN1CCC2(CC1)C(=O)NCN2c1ccccc1)c1nc2ccccc2s1`, the Ki in test [1] amounted to 1.58 µM.
As for `O=C1NCN(c2ccccc2)C12CCN(CCCCc1nc3cc(Cl)ccc3s1)CC2`, the Ki came to 1.6 µM in test [2] and 1.51 µM at D(4) dopamine receptor.
For `Cl.O=C(CCCCN1C2CCC1CC(O)(c1ccc(Cl)cc1)C2)c1nc2ccccc2s1` (stereo not drawn), the values for the Ki on D(3) dopamine receptor (read-out: Ki) and on D(3) dopamine receptor (read-out: pKi (converted)) were 0.016 µM and 0.0162 µM, respectively.
Take `OC1(c2ccc(Cl)cc2)CC2CCC(C1)N2CCCCc1nc2ccccc2s1` (stereo not drawn): the Ki on D(3) dopamine receptor (read-out: Ki) is 0.013 µM; at D(2) dopamine receptor (read-out: Ki), 0.044 µM; on D(2) dopamine receptor (read-out: pKi (converted)), 0.0447 µM.
